pIC50: −log10 of the molar value. Read-outs that look alike come from different tables or passages of the source.
Key:
[1] = molecular target: Tb-labeled inactive PDGFRβ (Homo sapiens (Human), UniProt P09619); test: biochemical; type: binding
[2] = molecular target: His6-TEV-PDGFRβ (557-1016) (Homo sapiens (Human), UniProt P09619); test: PDGFRβ HTRF Assay; type: biochemical
Experimental: Instrumentation: a. Compound liquid handling: LabCyte Echo; b. Reagent liquid handling: Thermo Scientific Multidrop Combi; c. BMG PHERAStar multilabel plate reader.
Protein Reagent: His6-TEV-PDGFRβ Protein Prep prepared at Accelagen.
Assay buffer stock solution, contains 50 mM Hepes, 10 mM MgCl2, 1 mM EGTA, and 0.01% Brij-35, 0.01% ovalbumin, 2 mM DTT at pH 7.5, in molecular biology grade water. Store at room temperature.
Assay buffer. Dilute 5× Kinase buffer 5-fold with molecular biology grade water and add DTT to 2 mM and ovalbumin to 0.1 mg/mL (or 0.01%).
2× protein solution. Make a working solution of […] PDGFRβ in assay buffer. Keep on ice until use to maintain enzyme stability.
2× substrate solution. Make a working solution of 1.6 mM ATP and 1 μM TK-substrate biotin peptide in assay buffer. 3× quench/detection solution.
Step 2. PDGFRβ E+I pre-incubation: Add 2 μL 2× protein solution to columns 1-24 using the Multidrop Combi. Centrifuge at 1000 rpm for 1 min. Incubate 30 min at RT
Step 2. Enzymatic reaction: Add 2 μL substrate solution to columns 1-24 to initiate the reaction using the Multidrop Combi; cover/seal the assay plate to reduce evaporation. Centrifuge at 1000 rpm for 1 min. Incubate at room temperature for 3 hours.
Final concentrations of components in PDGFRp cascade assay:
0.5 μM TK-substrate biotin peptide
Step 3. Quench/Detection: Add 2 μl 3× quench/detection solution to columns 1-24 using the Multidrop Combi; cover/seal the plate. Centrifuge 1 min 1000 rpm. Incubate at RT for 60 min.
HTRF ratio values calculated by the instrument (Ratio is acceptor counts/donor counts*10,000) is exported from the plate reader and used in data analysis. The exported data will be used to calculate 1) compound activity and 2) assay statistics. […] Assay statistics can include Robust Z′ and Signal to Background.
% Inhibition Calculation: Percent inhibition will be calculated for sample wells based on the equation: […]
IC50 Calculation: For IC50 determination, full 11-point dose response data will be processed using the following equation: […]

Protein sequences, listed by entry. Tags and fused reporters are not part of them.
UniProt P09619, whole entry, looked up: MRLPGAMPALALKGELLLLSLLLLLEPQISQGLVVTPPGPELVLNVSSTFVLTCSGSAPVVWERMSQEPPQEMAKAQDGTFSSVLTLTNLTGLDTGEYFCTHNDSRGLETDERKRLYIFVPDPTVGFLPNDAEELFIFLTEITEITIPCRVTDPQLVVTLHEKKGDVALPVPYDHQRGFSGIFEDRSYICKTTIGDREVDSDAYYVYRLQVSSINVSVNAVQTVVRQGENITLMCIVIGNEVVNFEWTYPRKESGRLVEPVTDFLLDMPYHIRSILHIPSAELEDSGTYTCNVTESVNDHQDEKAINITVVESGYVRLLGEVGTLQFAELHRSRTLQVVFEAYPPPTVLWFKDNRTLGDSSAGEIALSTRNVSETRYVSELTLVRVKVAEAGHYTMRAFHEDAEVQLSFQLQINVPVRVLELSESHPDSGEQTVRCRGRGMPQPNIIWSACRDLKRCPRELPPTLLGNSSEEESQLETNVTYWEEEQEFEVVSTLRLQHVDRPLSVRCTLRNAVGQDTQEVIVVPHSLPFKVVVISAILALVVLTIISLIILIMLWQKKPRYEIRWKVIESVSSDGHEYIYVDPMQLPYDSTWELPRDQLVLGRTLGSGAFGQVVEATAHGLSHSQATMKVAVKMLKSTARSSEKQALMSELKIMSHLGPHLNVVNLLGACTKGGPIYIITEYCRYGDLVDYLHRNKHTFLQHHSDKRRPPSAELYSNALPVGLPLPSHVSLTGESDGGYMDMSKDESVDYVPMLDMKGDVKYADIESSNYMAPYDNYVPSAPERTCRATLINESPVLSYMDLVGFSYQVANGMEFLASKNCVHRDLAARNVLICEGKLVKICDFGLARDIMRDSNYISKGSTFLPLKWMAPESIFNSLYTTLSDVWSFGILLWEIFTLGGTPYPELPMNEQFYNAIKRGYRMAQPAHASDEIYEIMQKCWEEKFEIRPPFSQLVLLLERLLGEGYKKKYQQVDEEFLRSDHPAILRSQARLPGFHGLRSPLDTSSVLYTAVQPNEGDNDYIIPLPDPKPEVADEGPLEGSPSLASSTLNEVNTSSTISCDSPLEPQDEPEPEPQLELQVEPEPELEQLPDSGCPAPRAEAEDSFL

With Cn1nc(Nc2cc(C(=O)NCCN3CCCC3(C)C)ccc2F)c2cnc(Nc3ccnnc3)nc21 [Example 50, N-(2-(2,2-dimethylpyrrolidin-1-yl)ethyl)-4-fluoro-3-((1-methyl-6-(pyridazin-4-ylamino)-1H-pyrazolo[3,4-d]pyrimidin-3-yl)amino)benzamide] the pIC50 [1] was 8.30 and the pIC50 [2] was 9.60.
With Cc1ncc(C(=O)NCCN2CC[C@H](C)C2)cc1Nc1nn(C)c2nc(Nc3cncnc3)ncc12 [Example 12, (S)-6-methyl-5-((1-methyl-6-(pyrimidin-5-ylamino)-1H-pyrazolo[3,4-d]pyrimidin-3-yl)amino)-N-(2-(3-methylpyrrolidin-1-yl)ethyl)nicotinamide] the pIC50 [1] was 8.24 and the pIC50 [2] was 9.32.
COC1CCN(CCNC(=O)c2cnc(C)c(Nc3nn(C)c4nc(Nc5cnn(C)c5)ncc34)c2)CC1 [Example 22, N-(2-(4-methoxypiperidin-1-yl)ethyl)-6-methyl-5-((1-methyl-6-((1-methyl-1H-pyrazol-4-yl)amino)-1H-pyrazolo[3,4-d]pyrimidin-3-yl)amino)nicotinamide] showed a pIC50 [1] of 8.38 and a pIC50 [2] of 9.40.
Cc1ncc(C(=O)NCCN2CC3COCC3C2)cc1Nc1nn(C)c2nc(Nc3cnn(C)c3)ncc12 (stereo not drawn) [Example 26, 6-methyl-5-((1-methyl-6-((1-methyl-1H-pyrazol-4-yl)amino)-1H-pyrazolo[3,4-d]pyrimidin-3-yl)amino)-N-(2-(tetrahydro-1H-furo[3,4-c]pyrrol-5(3H)-yl)ethyl)nicotinamide] showed a pIC50 [1] of 8.42 and a pIC50 [2] of 9.24.
COCC1CCCN1CCNC(=O)c1cnc(C)c(Nc2nn(C)c3nc(Nc4cnn(C)c4)ncc23)c1 (stereo not drawn) [Example 25, N-(2-(2-(methoxymethyl)pyrrolidin-1-yl)ethyl)-6-methyl-5-((1-methyl-6-((1-methyl-1H-pyrazol-4-yl)amino)-1H-pyrazolo[3,4-d]pyrimidin-3-yl)amino)nicotinamide] was tested, and the pIC50 [1] was 8.57 and the pIC50 [2] was 9.44.
In the case of Cc1ncc(C(=O)NCCN2CCOCC23CC3)cc1Nc1nn(C)c2nc(Nc3cnn(C)c3)ncc12 [Example 24, N-(2-(7-oxa-4-azaspiro[2.5]octan-4-yl)ethyl)-6-methyl-5-((1-methyl-6-((1-methyl-1H-pyrazol-4-yl)amino)-1H-pyrazolo[3,4-d]pyrimidin-3-yl)amino)nicotinamide], the pIC50 [1] was 8.52 and the pIC50 [2] was 9.26.
With Cc1ncc(C(=O)NCCN2CCS(=O)(=O)CC2)cc1Nc1nn(C)c2nc(Nc3cnn(C)c3)ncc12 [Example 23, N-(2-(1,1-dioxidothiomorpholino)ethyl)-6-methyl-5-((1-methyl-6-((1-methyl-1H-pyrazol-4-yl)amino)-1H-pyrazolo[3,4-d]pyrimidin-3-yl)amino)nicotinamide] the pIC50 [1] was 8.57 and the pIC50 [2] was 9.39.
For Cc1ncc(C(=O)NCCN2CC[C@@H](C)C2)cc1Nc1nn(C)c2nc(Nc3cncnc3)ncc12 [Example 59, (R)-6-methyl-5-((1-methyl-6-(pyrimidin-5-ylamino)-1H pyrazolo-[3,4-d]pyrimidin-3-yl)amino)-N-(2-(3-methylpyrrolidin-1-yl)ethyl)nicotinamide], the pIC50 ([1]; read-out: PDGFR Lantha IC50) was 8.21 and the pIC50 ([2]; 800 μM ATP, 0.5 μM TK-substrate biotin peptide, 30 min pre-incubation, 3 hours reaction, read-out: PDGFR HTRF IC50) was 9.41.
For Cc1ncc(C(=O)NCCN(C)C2CCOCC2)cc1Nc1nn(C)c2nc(Nc3cnn(C)c3)ncc12 [Example 21, 6-methyl-N-(2-(methyl(tetrahydro-2H-pyran-4-yl)amino)ethyl)-5-((1-methyl-6-((1-methyl-1H-pyrazol-4-yl)amino)-1H-pyrazolo[3,4-d]pyrimidin-3-yl)amino)nicotinamide], the pIC50 [1] was 8.47 and the pIC50 [2] was 9.37.
Molecule Cc1ncc(C(=O)NCCN2CCCC23COC3)cc1Nc1nn(C)c2nc(Nc3cnn(C)c3)ncc12 [Example 18, N-(2-(2-oxa-5-azaspiro[3.4]octan-5-yl)ethyl)-6-methyl-5-((1-methyl-6-((1-methyl-1H-pyrazol-4-yl)amino)-1H-pyrazolo[3,4-d]pyrimidin-3-yl)amino)nicotinamide] has a pIC50 [1] of 8.57 and a pIC50 [2] of 9.29.
Cc1ncc(C(=O)NCCN2CCCC23CC3)cc1Nc1nn(C)c2nc(Nc3cnn(C)c3)ncc12 [Example 53, N-(2-(4-azaspiro[2.4]heptan-4-yl)ethyl)-6-methyl-5-((1-methyl-6-((1-methyl-1H-pyrazol-4-yl)amino)-1H-pyrazolo[3,4-d]pyrimidin-3-yl)amino)nicotinamide] gave a pIC50 [1] of 8.51 and a pIC50 [2] of 9.32.
Molecule Cc1ncc(C(=O)NCCN2CCOC3(CC3)C2)cc1Nc1nn(C)c2nc(Nc3cnn(C)c3)ncc12 [Example 54, N-(2-(4-oxa-7-azaspiro[2.5]octan-7-yl)ethyl)-6-methyl-5-((1-methyl-6-((1-methyl-1H-pyrazol-4-yl)amino)-1H-pyrazolo[3,4-d]pyrimidin-3-yl)amino)nicotinamide] has a pIC50 [1] of 8.52 and a pIC50 [2] of 9.37.
Work on Cc1ncc(C(=O)NCCN2CCC3(CC2)COC3)cc1Nc1nn(C)c2nc(Nc3cnn(C)c3)ncc12 [Example 20, N-(2-(2-oxa-7-azaspiro[3.5]nonan-7-yl)ethyl)-6-methyl-5-((1-methyl-6-((1-methyl-1H-pyrazol-4-yl)amino)-1H-pyrazolo[3,4-d]pyrimidin-3-yl)amino)nicotinamide] yielded a pIC50 [1] of 8.37 and a pIC50 [2] of 9.29.
Cc1ncc(C(=O)NCCN2CCC3(CCC3)C2)cc1Nc1nn(C)c2nc(Nc3cnn(C)c3)ncc12 [Example 83, N-(2-(6-azaspiro[3.4]octan-6-yl)ethyl)-6-methyl-5-((1-methyl-6-((1-methyl-1H-pyrazol-4-yl)amino)-1H-pyrazolo[3,4-d]pyrimidin-3-yl)amino)nicotinamide] showed a pIC50 [1] of 8.64 and a pIC50 [2] of 9.54.
Molecule Cc1ncc(C(=O)NCCN2CCC3(CCO3)CC2)cc1Nc1nn(C)c2nc(Nc3cnn(C)c3)ncc12 [Example 19, N-(2-(1-oxa-7-azaspiro[3.5]nonan-7-yl)ethyl)-6-methyl-5-((1-methyl-6-((1-methyl-1H-pyrazol-4-yl)amino)-1H-pyrazolo[3,4-d]pyrimidin-3-yl)amino)nicotinamide] has a pIC50 [1] of 8.35 and a pIC50 [2] of 9.28.

Reference: patent publication US20240360134A1, “PYRAZOLOPYRIMIDINES AND THEIR USES AS PDGFR INHIBITORS” (priority 2021, published 2024)
